The chains behind the UniProt entries cited, without tags or fusion partners. Where a name states a change or a piece, a line headed by the entry shows the natural chain unless it says otherwise.
UniProt P18507: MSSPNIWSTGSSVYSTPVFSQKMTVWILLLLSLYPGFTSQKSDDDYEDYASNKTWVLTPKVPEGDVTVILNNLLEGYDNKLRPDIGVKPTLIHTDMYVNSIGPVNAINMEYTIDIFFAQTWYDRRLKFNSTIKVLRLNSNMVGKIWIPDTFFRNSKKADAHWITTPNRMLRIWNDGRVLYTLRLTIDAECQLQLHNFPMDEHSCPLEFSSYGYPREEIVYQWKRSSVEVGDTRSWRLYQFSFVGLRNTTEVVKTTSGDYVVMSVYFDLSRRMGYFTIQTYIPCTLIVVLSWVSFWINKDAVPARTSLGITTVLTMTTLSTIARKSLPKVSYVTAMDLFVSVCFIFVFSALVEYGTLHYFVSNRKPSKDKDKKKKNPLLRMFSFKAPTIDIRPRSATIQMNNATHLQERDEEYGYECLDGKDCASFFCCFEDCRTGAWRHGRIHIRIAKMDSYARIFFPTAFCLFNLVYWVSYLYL
UniProt P28472: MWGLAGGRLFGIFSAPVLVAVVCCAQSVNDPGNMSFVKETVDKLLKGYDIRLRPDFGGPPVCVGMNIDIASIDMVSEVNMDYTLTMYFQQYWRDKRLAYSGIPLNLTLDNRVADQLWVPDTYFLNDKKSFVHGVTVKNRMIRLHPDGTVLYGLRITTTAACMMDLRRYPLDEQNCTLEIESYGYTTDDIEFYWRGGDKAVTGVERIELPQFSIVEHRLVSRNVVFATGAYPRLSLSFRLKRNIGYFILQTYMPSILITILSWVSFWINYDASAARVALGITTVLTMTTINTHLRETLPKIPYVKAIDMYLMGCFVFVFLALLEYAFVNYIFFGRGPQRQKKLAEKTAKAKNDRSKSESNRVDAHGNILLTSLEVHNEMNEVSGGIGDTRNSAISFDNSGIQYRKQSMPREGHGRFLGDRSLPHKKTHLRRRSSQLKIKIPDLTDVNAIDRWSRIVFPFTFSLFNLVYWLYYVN
UniProt P31644: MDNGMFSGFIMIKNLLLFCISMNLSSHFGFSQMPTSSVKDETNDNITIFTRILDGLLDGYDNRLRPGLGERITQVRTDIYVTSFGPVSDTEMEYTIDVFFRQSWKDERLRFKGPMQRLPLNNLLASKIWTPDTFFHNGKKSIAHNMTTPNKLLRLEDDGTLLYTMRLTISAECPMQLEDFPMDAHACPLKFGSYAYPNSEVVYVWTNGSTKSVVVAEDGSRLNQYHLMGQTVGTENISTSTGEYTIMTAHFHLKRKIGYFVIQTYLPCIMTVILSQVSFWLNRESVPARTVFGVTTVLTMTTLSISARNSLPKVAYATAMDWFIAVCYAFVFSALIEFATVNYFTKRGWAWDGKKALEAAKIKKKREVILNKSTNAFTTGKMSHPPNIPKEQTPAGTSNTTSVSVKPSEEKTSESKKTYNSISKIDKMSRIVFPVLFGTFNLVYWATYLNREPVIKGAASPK

In ChEMBL document CHEMBL1139460 (J Med Chem, 2005):

Molecular target: GABA-A receptor; alpha-5/beta-3/gamma-2 (Homo sapiens) (UniProt P18507+P28472+P31644)
Assay: Efficacy at human recombinant GABAA alpha-5-beta-3-gamma-2 receptor
Assay type: protein-complex assay

- Efficacy: 6%
SMILES: CCn1ncnc1COc1nn2c(-c3ccccc3F)nnc2cc1C(C)(C)C [MK-0777]
